{"source": "PubChem BioAssay (NCI)", "test_in_all_cases": "NCI-60 cell line screen, 48 h", "key": {"[1]": {"test_system": "T-47D breast"}, "[2]": {"test_system": "SK-MEL-2 melanoma"}, "[3]": {"test_system": "SW-620 colon"}, "[4]": {"test_system": "786-0 renal"}, "[5]": {"test_system": "OVCAR-4 ovarian"}, "[6]": {"test_system": "OVCAR-5 ovarian"}, "[7]": {"test_system": "EKVX NSCLC"}, "[8]": {"test_system": "HL-60(TB) leukemia"}, "[9]": {"test_system": "DU-145 prostate"}, "[10]": {"test_system": "MDA-MB-231 breast"}, "[11]": {"test_system": "UACC-62 melanoma"}, "[12]": {"test_system": "HT29 colon"}, "[13]": {"test_system": "PC-3 prostate"}, "[14]": {"test_system": "COLO 205 colon"}, "[15]": {"test_system": "HS 578T breast"}, "[16]": {"test_system": "SR leukemia"}, "[17]": {"test_system": "SNB-19 CNS"}, "[18]": {"test_system": "SN12C renal"}, "[19]": {"test_system": "HCT-15 colon"}, "[20]": {"test_system": "CCRF-CEM leukemia"}, "[21]": {"test_system": "UACC-257 melanoma"}, "[22]": {"test_system": "SK-MEL-28 melanoma"}, "[23]": {"test_system": "MDA-MB-435"}, "[24]": {"test_system": "CAKI-1 renal"}, "[25]": {"test_system": "SF-539 CNS"}, "[26]": {"test_system": "A549 NSCLC"}, "[27]": {"test_system": "HOP-92 NSCLC"}, "[28]": {"test_system": "U251 CNS"}}, "note": "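A five-concentration, 48-hour dose response in 96-well plates underlies each endpoint, interpolated linearly between surrounding concentrations. The concentration for 50% growth inhibition is given as GI50. TGI: concentration producing complete growth inhibition.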"}
{"molecule": "CCOP(=O)(NC(N)=O)OCC", "values": [{"measurement": "GI50", "setting": "[1]", "result": "> 100", "unit": "µM"}, {"measurement": "TGI", "setting": "[1]", "result": "> 100", "unit": "µM"}, {"measurement": "GI50", "setting": "[2]", "result": "> 100", "unit": "µM"}, {"measurement": "TGI", "setting": "[2]", "result": "> 100", "unit": "µM"}, {"measurement": "GI50", "setting": "[3]", "result": "> 100", "unit": "µM"}, {"measurement": "TGI", "setting": "[3]", "result": "> 100", "unit": "µM"}, {"measurement": "GI50", "setting": "[4]", "result": "> 100", "unit": "µM"}, {"measurement": "TGI", "setting": "[4]", "result": "> 100", "unit": "µM"}, {"measurement": "GI50", "setting": "[5]", "result": "> 100", "unit": "µM"}, {"measurement": "TGI", "setting": "[5]", "result": "> 100", "unit": "µM"}, {"measurement": "GI50", "setting": "[6]", "result": "> 100", "unit": "µM"}, {"measurement": "TGI", "setting": "[6]", "result": "> 100", "unit": "µM"}, {"measurement": "GI50", "setting": "[7]", "result": "> 100", "unit": "µM"}, {"measurement": "TGI", "setting": "[7]", "result": "> 100", "unit": "µM"}, {"measurement": "GI50", "setting": "[8]", "result": "> 100", "unit": "µM"}, {"measurement": "TGI", "setting": "[8]", "result": "> 100", "unit": "µM"}, {"measurement": "GI50", "setting": "[9]", "result": "> 100", "unit": "µM"}, {"measurement": "TGI", "setting": "[9]", "result": "> 100", "unit": "µM"}, {"measurement": "GI50", "setting": "[10]", "result": "> 100", "unit": "µM"}, {"measurement": "TGI", "setting": "[10]", "result": "> 100", "unit": "µM"}, {"measurement": "GI50", "setting": "[11]", "result": "> 100", "unit": "µM"}, {"measurement": "TGI", "setting": "[11]", "result": "> 100", "unit": "µM"}, {"measurement": "GI50", "setting": "[12]", "result": "> 100", "unit": "µM"}, {"measurement": "TGI", "setting": "[12]", "result": "> 100", "unit": "µM"}, {"measurement": "GI50", "setting": "[13]", "result": "> 100", "unit": "µM"}, {"measurement": "TGI", "setting": "[13]", "result": "> 100", "unit": "µM"}, {"measurement": "GI50", "setting": "[14]", "result": "> 100", "unit": "µM"}, {"measurement": "TGI", "setting": "[14]", "result": "> 100", "unit": "µM"}, {"measurement": "GI50", "setting": "[15]", "result": "> 100", "unit": "µM"}, {"measurement": "TGI", "setting": "[15]", "result": "> 100", "unit": "µM"}, {"measurement": "GI50", "setting": "[16]", "result": "> 100", "unit": "µM"}, {"measurement": "TGI", "setting": "[16]", "result": "> 100", "unit": "µM"}, {"measurement": "GI50", "setting": "[17]", "result": "> 100", "unit": "µM"}, {"measurement": "TGI", "setting": "[17]", "result": "> 100", "unit": "µM"}, {"measurement": "GI50", "setting": "[18]", "result": "> 100", "unit": "µM"}, {"measurement": "TGI", "setting": "[18]", "result": "> 100", "unit": "µM"}, {"measurement": "GI50", "setting": "[19]", "result": "> 100", "unit": "µM"}, {"measurement": "TGI", "setting": "[19]", "result": "> 100", "unit": "µM"}, {"measurement": "GI50", "setting": "[20]", "result": "> 100", "unit": "µM"}, {"measurement": "TGI", "setting": "[20]", "result": "> 100", "unit": "µM"}, {"measurement": "GI50", "setting": "[21]", "result": "> 100", "unit": "µM"}, {"measurement": "TGI", "setting": "[21]", "result": "> 100", "unit": "µM"}, {"measurement": "GI50", "setting": "[22]", "result": "> 100", "unit": "µM"}, {"measurement": "TGI", "setting": "[22]", "result": "> 100", "unit": "µM"}, {"measurement": "GI50", "setting": "[23]", "result": "> 100", "unit": "µM"}, {"measurement": "TGI", "setting": "[23]", "result": "> 100", "unit": "µM"}, {"measurement": "GI50", "setting": "[24]", "result": "> 100", "unit": "µM"}, {"measurement": "TGI", "setting": "[24]", "result": "> 100", "unit": "µM"}, {"measurement": "GI50", "setting": "[25]", "result": "> 100", "unit": "µM"}, {"measurement": "TGI", "setting": "[25]", "result": "> 100", "unit": "µM"}, {"measurement": "GI50", "setting": "[26]", "result": "> 100", "unit": "µM"}, {"measurement": "TGI", "setting": "[26]", "result": "> 100", "unit": "µM"}, {"measurement": "GI50", "setting": "[27]", "result": "> 100", "unit": "µM"}, {"measurement": "TGI", "setting": "[27]", "result": "> 100", "unit": "µM"}, {"measurement": "GI50", "setting": "[28]", "result": "> 100", "unit": "µM"}, {"measurement": "TGI", "setting": "[28]", "result": "> 100", "unit": "µM"}]}
